This is an account of results in US5298508A, “Irreversible inhibitors of adenosine receptors” (priority 1992, dated 1994).

Protein sequences, listed by entry. Tags and fused reporters are not part of them.
UniProt P25099, whole entry: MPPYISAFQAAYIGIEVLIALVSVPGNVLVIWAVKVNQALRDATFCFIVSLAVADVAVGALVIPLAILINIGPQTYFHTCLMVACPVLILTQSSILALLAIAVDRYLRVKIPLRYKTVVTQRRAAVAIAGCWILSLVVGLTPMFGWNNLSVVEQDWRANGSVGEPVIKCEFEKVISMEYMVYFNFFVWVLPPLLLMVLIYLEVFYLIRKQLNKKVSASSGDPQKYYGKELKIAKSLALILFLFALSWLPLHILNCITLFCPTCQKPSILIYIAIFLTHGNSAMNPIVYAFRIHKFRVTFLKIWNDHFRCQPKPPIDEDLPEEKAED

This experiment concerns the target T1, central A1 receptors (Rattus norvegicus, UniProt P25099).
T1 construct: A1 -adenosine receptors in rat brain membranes; from tissue; host or cells: rat brain membranes
It counts as binding. As to conditions: [125I]APNEA, after treatment with p-DITC-XAC; same affinity as native receptors; read-out: KD-value of radioligand at remaining/native receptors.

For the substance “N^6 -(4aminophenylethyl)adenosine [[125I]APNEA, reference compound]”, the Kd worked out at 0.5 nM.
